Read-outs that look alike come from different tables or passages of the source.
Key:
cPLA2 = biological target: T1, cPLA2 (Homo sapiens, UniProt P47712); assay: Coumarine assay (hydrolysis of 7-hydroxycoumarinyl 6-heptenoate); type: biochemical; settings: Coumarin IC50 (uM), 60 μM 7-hydroxycoumarinyl 6-heptenoate, pH 7.5
T1 sequence (P47712 1-749): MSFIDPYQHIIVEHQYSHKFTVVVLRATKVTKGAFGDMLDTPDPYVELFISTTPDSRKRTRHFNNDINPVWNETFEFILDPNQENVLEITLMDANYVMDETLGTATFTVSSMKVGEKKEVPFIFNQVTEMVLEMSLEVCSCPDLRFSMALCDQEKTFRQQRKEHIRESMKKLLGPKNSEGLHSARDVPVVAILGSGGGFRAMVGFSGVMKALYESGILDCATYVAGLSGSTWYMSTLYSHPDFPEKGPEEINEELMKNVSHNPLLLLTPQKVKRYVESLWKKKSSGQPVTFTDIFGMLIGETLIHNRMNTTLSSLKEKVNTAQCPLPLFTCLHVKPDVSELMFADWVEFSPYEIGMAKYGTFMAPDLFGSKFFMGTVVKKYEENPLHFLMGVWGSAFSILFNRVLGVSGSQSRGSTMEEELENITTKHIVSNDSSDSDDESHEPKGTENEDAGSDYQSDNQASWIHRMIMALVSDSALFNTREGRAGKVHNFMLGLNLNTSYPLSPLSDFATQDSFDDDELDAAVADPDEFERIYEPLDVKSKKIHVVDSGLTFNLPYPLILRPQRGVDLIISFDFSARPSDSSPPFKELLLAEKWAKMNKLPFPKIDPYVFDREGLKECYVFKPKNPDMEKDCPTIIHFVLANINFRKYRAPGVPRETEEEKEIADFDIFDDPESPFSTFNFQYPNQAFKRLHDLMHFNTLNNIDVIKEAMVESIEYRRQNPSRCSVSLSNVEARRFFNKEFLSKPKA

ApoE KO mice = assay: ApoE knockout mouse model of atherosclerosis; type: in vivo; settings: after 9 and 20 weeks of treatment, compared to control animals

O=C(O)c1ccc(OCCc2c(CCNS(=O)(=O)/C=C/c3ccccc3)n(C(c3ccccc3)c3ccccc3)c3ccc(Cl)cc23)cc1 [Example 21, 4-(2-{1-benzhydryl-5-chloro-2-[2-({[(E)-2-phenylethenyl]sulfonyl}amino)ethyl]1H-indol-3-yl}ethoxy)benzoic acid]
IC50 (cPLA2): 1.1 µM

O=C(O)c1ccc(CCCc2c(CCNS(=O)(=O)Cc3ccc(Cl)c(Cl)c3)n(C(c3ccccc3)c3ccccc3)c3ccc(Cl)cc23)cc1 [Example 44]
serum thromboxane B2 levels (ApoE KO mice): significantly decreased | maximum drug exposure (normal chow diet supplemented at 1.3 mg/g): ~250 ng/mL | maximum drug exposure (normal chow diet supplemented at 3.3 mg/g): ~500 ng/mL

Source: patent US7605156B2 (dated 2009)
